Assay results: US10214520B2, “Substituted azaspiro(4.5)decane derivatives” (priority 2014, dated 2019)
pKi: −log10 of the molar value.

Protein sequences, listed by entry. Tags and fused reporters are not part of them.
UniProt P35372, whole entry: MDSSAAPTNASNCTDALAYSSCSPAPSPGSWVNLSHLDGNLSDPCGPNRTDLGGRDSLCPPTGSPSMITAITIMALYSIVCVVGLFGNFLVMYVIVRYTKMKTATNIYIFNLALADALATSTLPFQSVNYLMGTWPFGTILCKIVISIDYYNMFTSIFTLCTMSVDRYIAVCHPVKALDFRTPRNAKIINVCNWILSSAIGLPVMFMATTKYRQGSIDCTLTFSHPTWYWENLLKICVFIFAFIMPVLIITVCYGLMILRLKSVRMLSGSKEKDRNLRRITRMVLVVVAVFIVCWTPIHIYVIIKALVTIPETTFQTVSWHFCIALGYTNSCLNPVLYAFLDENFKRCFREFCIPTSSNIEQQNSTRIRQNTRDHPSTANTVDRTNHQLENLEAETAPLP
UniProt P41146, whole entry: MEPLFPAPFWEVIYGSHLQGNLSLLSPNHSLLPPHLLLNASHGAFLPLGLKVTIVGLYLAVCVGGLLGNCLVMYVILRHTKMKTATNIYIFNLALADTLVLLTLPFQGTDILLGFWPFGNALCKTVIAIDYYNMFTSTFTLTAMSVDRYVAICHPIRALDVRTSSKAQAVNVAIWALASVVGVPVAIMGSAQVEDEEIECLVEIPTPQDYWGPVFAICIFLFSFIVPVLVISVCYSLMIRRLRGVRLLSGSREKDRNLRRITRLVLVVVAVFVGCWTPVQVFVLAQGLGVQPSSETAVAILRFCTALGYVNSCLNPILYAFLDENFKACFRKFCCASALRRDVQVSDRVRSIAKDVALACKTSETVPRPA

Tests used:
human μ opiate receptor = human μ opiate receptor (Homo sapiens, UniProt P35372); assay: μ opiate receptor binding assay with [3H]-naloxone, membrane preparation of CHO-K1 cells (WGA-SPA beads); conditions: for pKi: read-out: Ki (μ) mean [μm], mean; for % inhibition (μ) [1 μM]: test concentration 1 μM
ORL1 receptor = ORL1 receptor (Homo sapiens, UniProt P41146); assay: ORL1 receptor binding assay with 3H-nociceptin/orphanin FQ, membranes from recombinant CHO-ORL1 cells (WGA-SPA beads); conditions: for pKi: read-out: Ki (ORL1) mean [μm], mean; for % inhibition (ORL1) [1 μM]: test concentration 1 μM
[1] = test system: Female Sprague Dawley rats; assay: Analgesia in the tail flick (focal ray) test in rats, intravenous administration

Compound	pKi (human μ opiate receptor)	% inhibition (μ) [1 μM] (human μ opiate receptor) [%]	pKi (ORL1 receptor)	% inhibition (ORL1) [1 μM] (ORL1 receptor) [%]	% inhibition (μ) [1 μM] (human μ opiate receptor; 1 µM) [%]	% inhibition (ORL1) [1 μM] (ORL1 receptor; 1 µM) [%]	Tail flick rat, i.v. % MPE (@μg/kg) ([1]; @10 μg/kg) [%@10 % MPE]	Tail flick rat, i.v. % MPE (@μg/kg) ([1]; @1000 μg/kg) [%@1000 % MPE]	Tail flick rat, i.v. % MPE (@μg/kg) ([1]; @100 μg/kg) [%@100 % MPE]
CN(C)C1(c2ccccc2)CCC2(CC1)CC(=O)N(CC(C)(C)C(N)=O)C2 (stereo not drawn)	7.89	96.5	7.52	84					
Cc1ccsc1C(=O)N1CCC2(CCC(c3cccs3)(N(C)C)CC2)C1 (stereo not drawn)	8.82	99.5	7.86	91					
CN(C)C1(c2cccs2)CCC2(CC1)CC(=O)N(Cc1ccncc1)C2 (single isomer, unassigned)	5.95	20.5	6.59	31					
CN(C)C1(Cc2ccccc2)CCC2(CCN(Cc3ccccc3)C2=O)CC1 (single isomer, unassigned) [86]	6.38				11	12.7			
CN(C)C1(Cc2ccccc2)CCC2(CCN(Cc3ccccc3)C2=O)CC1 (single isomer, unassigned) [87]	7.02		6.60		79.5	47.33			
CN(C)C1(c2cccs2)CCC2(CC1)CC(=O)N(C(=O)OC(C)(C)C)C2 (single isomer, unassigned) [90]	8.52		8.09		98.5	89			
CN(C)C1(c2cccs2)CCC2(CC1)CC(=O)N(C(=O)OC(C)(C)C)C2 (single isomer, unassigned) [91]	6.43		6.64		53.5	36			
CN(C)C1(c2cccs2)CCC2(CC1)CC(=O)N(Cc1cccs1)C2 (single isomer, unassigned) [94]	9.38		8.87		99	94.5			
CN(C)C1(c2cccs2)CCC2(CC1)CC(=O)N(Cc1cccs1)C2 (single isomer, unassigned) [95]	6.27		7.02		61.5	65			
Cc1ccc(C2(N(C)C)CCC3(CC2)CC(=O)N(Cc2ccccc2)C3)s1 (single isomer, unassigned) [98]	9.28		8.52		98.5	87			
Cc1ccc(C2(N(C)C)CCC3(CC2)CC(=O)N(Cc2ccccc2)C3)s1 (single isomer, unassigned) [99]	6.63		6.92		39.5	16			
CN(C)C1(c2ccccc2)CCC2(CC1)CC(=O)N(Cc1ccncc1)C2 (single isomer, unassigned) [103]	7.37		7.50		93	74.5	60		
CN(C)C1(c2ccccc2)CCC2(CC1)CC(=O)N(Cc1ccncc1)C2 (single isomer, unassigned) [104]	6.38		7.06		65.5	59.5			
CN(C)C1(c2ccccc2)CCC2(CC1)CC(=O)N(Cc1cccs1)C2 (single isomer, unassigned) [105]	9.18		8.66		100	95			
CN(C)C1(c2ccccc2)CCC2(CC1)CC(=O)N(Cc1cccs1)C2 (single isomer, unassigned) [106]	6.55		7.23		48.5	61			
Cc1ccc(CN2CC3(CCC(c4ccccc4)(N(C)C)CC3)CC2=O)s1 (single isomer, unassigned) [107]	9.47		8.72		101.5	97			
Cc1ccc(CN2CC3(CCC(c4ccccc4)(N(C)C)CC3)CC2=O)s1 (single isomer, unassigned) [108]	6.37		7.31		88	64.5			
CN(C)C1(c2cccs2)CCC2(CCN(Cc3ccncc3)C2)CC1 (stereo not drawn) [29]	7.52		7.84		93.5	77.5		31	
CN(C)C1(c2ccccc2)CCC2(CC1)CC(=O)N(Cc1ccccc1)C2 (stereo not drawn) [101]	9.25		8.94		96.5	95.5			100
